In patent US20240189318A1, “THERAPEUTIC REGIMENS OF AN INHIBITOR OF THE ENZYMATIC ACTIVITY OF BRG1 AND BRM” (FOGHORN THERAPEUTICS INC., priority 2021, published 2024):

Test system: cultured human hepatocytes
Test: Cytotoxicity to cultured human hepatocytes (morphology, LDH release)
Conditions: 72 hours, first study 0.05 to 30 μM, all donors

COC[C@H](NC(=O)c1ccn(S(C)(=O)=O)c1)C(=O)Nc1nc(-c2cccc(N3C[C@@H](C)O[C@@H](C)C3)n2)cs1 [compound of formula (I), N-((S)-1-((4-(6-(cis-2,6-dimethylmorpholino)pyridin-2-yl)thiazol-2-yl)amino)-3-methoxy-1-oxopropan-2-yl)-1-(methylsulfonyl)-1H-pyrrole-3-carboxamide]
concentrations that appeared cytotoxic to cultured human hepatocytes (morphology changes): ≥ 0.5 μM
